For experiment [1], the species on record is Homo sapiens. Description: Ratio for affinity of Opioid receptor delta 1 to that of opioid receptor like 1.
The species entered for experiment [2] is Homo sapiens. Kind of experiment: Ratio for affinity of opioid receptor kappa 1 to that of opioid receptor like 1.

Take `COc1ccc(C)c(OC(CCN2CCC(n3c(=O)[nH]c4ccccc43)CC2)C(C)C)c1` (configuration not stated) [ORGANON]: the values for the Ratio in the experiment filed under Homo sapiens [1] and in the experiment filed under Homo sapiens [2] were 191 and 25, respectively.
